Molecular target: chicken erythrocyte tubulin (CeTb), ~95% βVI (Gallus gallus, UniProt P09207)
Experiment: biochemical

Protein sequences, listed by entry. Tags and fused reporters are not part of them.
UniProt P09207, whole entry: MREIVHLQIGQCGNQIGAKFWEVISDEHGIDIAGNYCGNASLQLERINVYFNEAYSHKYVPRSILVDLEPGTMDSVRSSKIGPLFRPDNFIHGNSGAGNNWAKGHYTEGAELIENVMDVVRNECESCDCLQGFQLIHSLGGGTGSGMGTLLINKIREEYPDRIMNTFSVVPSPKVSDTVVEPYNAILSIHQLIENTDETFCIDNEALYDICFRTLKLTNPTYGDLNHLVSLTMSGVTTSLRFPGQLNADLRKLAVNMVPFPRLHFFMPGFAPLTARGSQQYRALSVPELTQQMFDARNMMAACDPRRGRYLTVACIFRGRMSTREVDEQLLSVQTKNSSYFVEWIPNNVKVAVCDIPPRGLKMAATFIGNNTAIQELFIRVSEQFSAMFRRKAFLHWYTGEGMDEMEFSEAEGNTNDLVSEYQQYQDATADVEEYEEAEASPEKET

SMILES: COC(=O)Nc1nc2ccc(C(=O)c3cccs3)cc2[nH]1 [Nocodazole, nocodazole]
- IC50: 87 ± 2 µM

— publication PMC2852430 (Biochemistry, 2010)
